Measurements as given in paper PMC3893826 (Journal of medicinal chemistry, 2010).

Test system: U87MG xenografts
Assay: Anti-tumor efficacy, U87MG xenograft model
Type: in vivo, mouse
Settings: dose of 20 mg/kg

CCC(=O)N1CCN(c2ccc(-n3c(=O)ccc4cnc5ccc(-c6cnc7ccccc7c6)cc5c43)cc2C(F)(F)F)CC1 [Compound 26, 1-(4-(4-propionylpiperazin-1-yl)-3-(trifluoromethyl)phenyl)-9-(quinolin-3-yl)benzo[h][1,6]naphthyridin-2(1H)-one]
efficacy in U87MG xenograft model: efficacious
